Measurements from ChEMBL document CHEMBL1142822, “Analysis of structure-activity relationships for the 'A-region' of N-(4-t-butylbenzyl)-N'-[4-(methylsulfonylamino)benzyl]thiourea analogues as TRPV1 antagonists” (Bioorg Med Chem Lett, 2005).
pKi: −log10 of the molar value.

Sequences of proteins named here, by UniProt entry; tags and fusion partners are left off.
UniProt O35433, whole entry: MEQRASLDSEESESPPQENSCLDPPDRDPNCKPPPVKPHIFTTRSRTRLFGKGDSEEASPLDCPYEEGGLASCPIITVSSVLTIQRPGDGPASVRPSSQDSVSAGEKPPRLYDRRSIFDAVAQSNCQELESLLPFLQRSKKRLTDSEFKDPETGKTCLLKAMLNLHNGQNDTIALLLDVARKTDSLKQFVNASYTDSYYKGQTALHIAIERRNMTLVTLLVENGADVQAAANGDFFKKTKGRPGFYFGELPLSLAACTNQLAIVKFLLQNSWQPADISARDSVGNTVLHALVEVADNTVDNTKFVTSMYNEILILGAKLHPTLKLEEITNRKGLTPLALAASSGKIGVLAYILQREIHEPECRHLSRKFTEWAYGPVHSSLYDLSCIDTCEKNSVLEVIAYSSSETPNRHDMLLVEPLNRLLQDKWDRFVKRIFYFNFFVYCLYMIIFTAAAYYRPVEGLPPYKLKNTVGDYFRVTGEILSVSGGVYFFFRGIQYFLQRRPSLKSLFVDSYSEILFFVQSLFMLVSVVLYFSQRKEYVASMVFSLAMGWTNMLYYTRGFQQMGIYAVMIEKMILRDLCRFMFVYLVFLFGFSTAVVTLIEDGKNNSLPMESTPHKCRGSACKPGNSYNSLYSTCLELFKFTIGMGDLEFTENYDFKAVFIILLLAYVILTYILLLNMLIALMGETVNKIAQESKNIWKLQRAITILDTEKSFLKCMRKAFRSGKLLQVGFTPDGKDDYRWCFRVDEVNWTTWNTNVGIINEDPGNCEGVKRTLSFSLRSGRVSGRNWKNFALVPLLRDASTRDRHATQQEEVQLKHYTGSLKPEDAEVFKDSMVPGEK

Target: Transient receptor potential cation channel subfamily V member 1 (Rattus norvegicus, UniProt O35433)
Assay: In vitro binding affinity for rat TRPV1 expressed in CHO cells using [3H]-RTX
Format: cell-based

## CC(C)(C)c1ccc(C/N=C(\S)NCc2ccc(NS(C)(=O)=O)cn2)cc1
  pKi: 4.92
